Consider eleven compounds from PubChem BioAssay AID1434 (Sanford-Burnham Center for Chemical Genomics, 2008).

Amino acid sequences for entries named in this document (tags omitted).
UniProt Q01196, whole entry, looked up: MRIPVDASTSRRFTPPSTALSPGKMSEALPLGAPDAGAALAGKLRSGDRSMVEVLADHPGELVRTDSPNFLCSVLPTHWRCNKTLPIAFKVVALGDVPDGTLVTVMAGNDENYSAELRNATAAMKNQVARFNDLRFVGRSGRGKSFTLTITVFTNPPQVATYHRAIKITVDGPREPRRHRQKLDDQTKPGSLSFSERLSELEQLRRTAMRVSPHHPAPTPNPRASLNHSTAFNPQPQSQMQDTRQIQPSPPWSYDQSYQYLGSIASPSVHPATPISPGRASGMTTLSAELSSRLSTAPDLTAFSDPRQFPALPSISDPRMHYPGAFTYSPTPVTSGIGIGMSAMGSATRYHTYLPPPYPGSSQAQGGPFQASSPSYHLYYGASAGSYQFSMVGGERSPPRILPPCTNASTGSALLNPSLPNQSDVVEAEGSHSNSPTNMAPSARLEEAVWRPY
UniProt Q13951, whole entry, looked up: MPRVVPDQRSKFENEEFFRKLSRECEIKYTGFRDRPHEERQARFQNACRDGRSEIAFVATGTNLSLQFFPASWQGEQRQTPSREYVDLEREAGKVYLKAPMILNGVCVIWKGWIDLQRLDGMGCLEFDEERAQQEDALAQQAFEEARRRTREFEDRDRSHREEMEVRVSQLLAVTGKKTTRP

The entries are a selection whose mix differs from that of the whole data set. Some of these compounds have results that are not shown, active ones among them. Calls of active or inactive are those of the source.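 Rule for the calls: active = mean inhibition across duplicate retests at 20 µM reaching about 50% (limit read from the data); inactive = the rest, inconclusive results apart.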

The test has as its target Runt-related transcription factor 1 (Homo sapiens) + Core-binding factor subunit beta (Homo sapiens) (UniProt Q01196+Q13951). The test is described as follows: inhibitors of RUNX1 Runt–CBFb-SMMHC binding, primary screen, biochemical, FRET, Cerulean-Runt, Venus-CBFb-SMMHC, uHTS (AID 1434).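 Note: 0% = DMSO wells and 100% = wells with excess untagged CBFb-SMMHC; inhibitors lower the FRET ratio by blocking Runt binding to CBFb-SMMHC.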 The conditions noted are these: Cerulean-Runt/Venus-CBFb-SMMHC FRET ratio 530/480, 1 h; at 20 µM; stronger effect = higher value.
For orientation: inhibition means the relative decrease from the control value, in per cent. On to `O=C(OC1CN2CCC1CC2)C(CO)(c1ccccc1)c1ccccc1` (stereo unspecified), for which the inhibition was inactive: -2.6%.

Take `COc1ccc(Br)c(C(=O)NCC2(N3CCCCC3)CCCCC2)c1`: the inhibition is inactive: -1.8%.

Take `CN(C)c1cccc(C(=O)NCC2(N(C)C)CCCCC2)c1`: the inhibition was inactive: 13.9%.

In the case of `COc1cccc(C(=O)NCC2(N3CCCCC3)CCCCC2)c1`, the inhibition is inactive: -1.7%.

With `Cc1ccccc1C(=O)NCC1(N2CCCCC2)CCCCC1`, the inhibition was inactive: 10.9%.

Turning to `CN(C)C1CCCC1OC(=O)C(O)(c1ccccc1)c1ccccc1` (stereo unspecified), the inhibition is inactive: 0.6%.

As to `C=CCN1CCN(CCOC(=O)C(O)(c2ccccc2)c2ccccc2)CC1`, the inhibition is inactive: -0.8%.

For the compound `CCN1CCCC(OC(=O)C2(O)c3ccccc3C=Cc3ccccc32)C1` (stereo unspecified), the inhibition is inactive: 0.6%.

On to `O=C(NCC1(N2CCCCC2)CCCCC1)c1cc([N+](=O)[O-])ccc1Cl`, for which the inhibition was inactive: 0.2%.

For the compound `CCN(CC)CC(C)C(C)OC(=O)C(O)(c1ccccc1)c1ccccc1` (stereo unspecified), the inhibition was inactive: -1.1%.

As for `CC(C)N1C(=O)CC2(CCN(CCOC(=O)C(O)(c3ccccc3)c3ccccc3)CC2)C1=O`, the inhibition is inactive: -7.9%.
